This note sets out measurements from ChEMBL document CHEMBL1137169, “P4 cap modified tetrapeptidyl alpha-ketoamides as potent HCV NS3 protease inhibitors” (Bioorg Med Chem Lett, 2004).

This experiment concerns the target T1, Neutrophil elastase (Homo sapiens) (UniProt P08246).
T1 sequence (whole entry): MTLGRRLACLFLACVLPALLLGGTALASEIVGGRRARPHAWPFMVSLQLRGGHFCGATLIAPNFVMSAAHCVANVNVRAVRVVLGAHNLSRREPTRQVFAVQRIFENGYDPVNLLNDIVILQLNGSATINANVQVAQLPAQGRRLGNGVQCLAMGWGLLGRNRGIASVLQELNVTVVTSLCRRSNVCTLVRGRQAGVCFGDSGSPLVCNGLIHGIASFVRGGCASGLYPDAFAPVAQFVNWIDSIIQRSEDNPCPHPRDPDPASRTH
Description: Selectivity for human neutrophil elastase.

On to `CCC[C@H](NC(=O)[C@@H]1C2CCCC2CN1C(=O)[C@@H](NC(=O)[C@@H](NC(=O)c1cnccn1)C(C)C)C(C)C)C(=O)C(=O)NC1CC1` (stereo partly specified), for which the Selectivity was 33.
